Assay results taken from article PMC10256634, “Comparative in vivo toxicokinetics of silver powder, nanosilver and soluble silver compounds after oral administration to rats” (Archives of Toxicology, 2023).

Experiments:
[1] = Toxicokinetics after 28 days repeated oral gavage dosing, total Ag in whole blood (ICP-MS); details: 0 to 96 h post-dose
[2] = Toxicokinetics after single oral gavage dose, total Ag in whole blood (ICP-MS)
[3] = single oral dose 5 mg/kg bw [Ag equivalent 3.25 AgAc, 3.2 AgNO3], male
[4] = single oral dose 125 [80 Ag] mg/kg bw, female
[5] = single oral dose 125 [80 Ag] mg/kg bw, male

Compound: O=[N+]([O-])[O-].[Ag+] [AgNO3, silver(I) nitrate]
- DN AUC0-t ([1]; 28 d oral 5 mg/kg bw/d [Ag equivalent 3.25 AgAc, 3.2 AgNO3], female): 2240 (ng.h/mL)/(mg/kg bw/d)
- DN AUC0-t ([1]; 28 d oral 5 mg/kg bw/d [Ag equivalent 3.25 AgAc, 3.2 AgNO3], male): 1600 (ng.h/mL)/(mg/kg bw/d)
- DN AUC0-t ([1]; 28 d oral 125 [80 Ag] mg/kg bw/d, female): 601 (ng.h/mL)/(mg/kg bw/d)
- DN AUC0-t ([1]; 28 d oral 125 [80 Ag] mg/kg bw/d, male): 476 (ng.h/mL)/(mg/kg bw/d)
- DN AUC0-t ([2]; rat, in vivo, po, 5 mg/kg): 1441 (ng.h/mL)/(mg/kg bw/d)
- DN AUC(0–24) ([2]; single oral dose 5 mg/kg bw [Ag equivalent 3.25 AgAc, 3.2 AgNO3], female): 544 (ng.h/mL)/(mg/kg bw/d)
- DN AUC0-t [2, 3]: 484 (ng.h/mL)/(mg/kg bw/d)
- DN AUC(0–24) [2, 3]: 311 (ng.h/mL)/(mg/kg bw/d)
- DN AUC0-t [2, 4]: 234 (ng.h/mL)/(mg/kg bw/d)
- DN AUC(0–24) [2, 4]: 96 (ng.h/mL)/(mg/kg bw/d)
- DN AUC0-t [2, 5]: 242 (ng.h/mL)/(mg/kg bw/d)
- DN AUC(0–24) [2, 5]: 75 (ng.h/mL)/(mg/kg bw/d)
